Columns and labels:
Mus musculus [1] = species on record: Mus musculus; assay: Tested for agonist potency by conducting tests on mouse vas deferens preparation
Mu-type opioid receptor = Mu-type opioid receptor (Cavia porcellus, UniProt P97266); assay: Binding affinity for mu opioid receptor in guinea pig brain membranes; using 2 nM [3H]DAMGO as radioligand
[2] = molecular target: T1, Kappa-type opioid receptor (Cavia porcellus, UniProt P41144); assay: Tested for competitive covalent binding of compound against k opioid receptor in guinea pig brain membrane; using [3H]U-69593 as radioligand
Cavia porcellus = species on record: Cavia porcellus; assay: Agonist potency was determined in electrically stimulated guinea pig ileal longitudinal muscle preparation, pre-incubated with 5 and 20 nM norBNI for 15 min; conditions: Muscle tissue
Mus musculus [3] = species on record: Mus musculus; assay: Effective dose required to produce equivalent antagonism of U50,488 antinociception in abdominal-stretch assay. Value at peak time of 30 min was reported at <4 h
Mus musculus [4] = species on record: Mus musculus; assay: Dose required to produce equivalent antagonism of U50,488 antinociception was determined in tail-flick assay. Compound dose at peak time of 18 h was reported. Time duration is 72-96 h
[5] = molecular target: T1, Kappa-type opioid receptor; assay: Tested for competitive covalent binding of compound against k opioid receptor in guinea pig brain membrane using [3H]U-69593 as radioligand
Mus musculus [6] = species on record: Mus musculus; assay: Tested for antinociceptive potency by Mouse abdominal stretch assay; conditions: Abdomen
Mus musculus [7] = species on record: Mus musculus; assay: Effective dose required to produce equivalent antagonism of U50,488 antinociception in abdominal-stretch assay. Value at peak time of 30 min was reported at <4 h.
Mus musculus [8] = assay: In vivo the compound was tested for antinociceptive potency by Mouse abdominal stretch assay; conditions: Abdomen
Mus musculus [9] = species on record: Mus musculus; assay: Antinociception was determined in tail-flick assay. Compound dose at peak time of 18 hr was reported. Time duration is 72-96 h

Protein sequences, listed by entry. Tags and fused reporters are not part of them. Lines headed by an entry give the natural chain unless they say otherwise; changes in a name come on top.
UniProt P97266, whole entry, looked up: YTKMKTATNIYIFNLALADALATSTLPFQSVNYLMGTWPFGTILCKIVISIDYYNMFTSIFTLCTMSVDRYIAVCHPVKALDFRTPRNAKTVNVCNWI
UniProt P41144: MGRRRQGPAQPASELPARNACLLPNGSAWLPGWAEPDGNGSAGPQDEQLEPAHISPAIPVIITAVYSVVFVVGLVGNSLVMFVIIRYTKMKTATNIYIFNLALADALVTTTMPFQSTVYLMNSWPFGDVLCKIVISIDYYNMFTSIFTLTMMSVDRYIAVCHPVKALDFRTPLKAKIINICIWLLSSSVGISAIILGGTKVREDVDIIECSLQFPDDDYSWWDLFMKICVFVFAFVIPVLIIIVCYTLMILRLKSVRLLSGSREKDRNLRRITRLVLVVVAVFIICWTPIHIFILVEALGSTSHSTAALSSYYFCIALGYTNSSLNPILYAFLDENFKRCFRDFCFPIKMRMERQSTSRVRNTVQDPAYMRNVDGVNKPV

## COC(=O)/C=C/C(=O)Nc1ccc([C@@H](CN2CCCC2)N(C)C(=O)Cc2ccc(Cl)c(Cl)c2)cc1
Mus musculus [1]
  IC50: 22.7 nM

## CN(C(=O)Cc1ccc(Cl)c(Cl)c1)[C@H](CN1CCCC1)c1cccc(N)c1
Mu-type opioid receptor
  IC50: 30.7 nM
[2]
  Kd: 3.36 nM
Mus musculus [1]
  IC50: 0.12 nM

## CN(C(=O)Cc1ccc(Cl)c(Cl)c1)[C@H](CN1CCCC1)c1cccc(N=C=S)c1
Cavia porcellus
  Ke: 0.3 nM
Mus musculus [3]
  ED50: 1.53 µmol/kg
Mus musculus [4]
  Dose: 65.4 nM/kg
[5]
  Kd: 2.43 nM
Mus musculus [1]
  IC50: 14.9 nM
Mus musculus [6]
  ED50: 1.53 µmol/kg

## COC(=O)/C=C/C(=O)Nc1cccc([C@@H](CN2CCCC2)N(C)C(=O)Cc2ccc(Cl)c(Cl)c2)c1
Mus musculus [1]
  IC50: 5.4 nM

## CN(C(=O)Cc1ccc(Cl)c(Cl)c1)C(CN1CCCC1)c1ccc(N)cc1 (centres undefined)
Mus musculus [1]
  IC50: 4.5 nM

## CN(C(=O)Cc1ccc(Cl)c(Cl)c1)[C@H](CN1CCCC1)c1ccc(N=C=S)cc1
Mus musculus [7]
  ED50: 0.71 µmol/kg
Mus musculus [8]
  ED50: 0.71 µmol/kg
Mus musculus [9]
  Dose: 4260 nM/kg
Mus musculus [1]
  IC50: 40 nM

## CN(C(=O)Cc1ccc(Cl)c(Cl)c1)[C@@H](CN1CCCC1)c1ccccc1
Mus musculus [1]
  IC50: 87 nM

## CN(C(=O)Cc1ccc(Cl)c(Cl)c1)[C@H](CN1CCCC1)c1ccccc1 [ICI-199,441]
Cavia porcellus
  Ke: 0.05 nM
Mus musculus [6]
  ED50: 0.017 µmol/kg
